Here are results for one substance from patent US20130045491A1, “METHODS FOR ACTIVATING T CELLS” (priority 2011, published 2013).

The subject of assay [1] is CCR6^+ IL-17^− memory T cells from wild-type C57B/6 mice. Kind of assay: IL-17 production by sorted mouse CCR6+IL-17- memory T cells cultured with IL-2. Type of assay: cell-based. The settings on record: 6 days in culture with IL-2; not seen in CCR6- cells. The method, then:
Wild-type C57B6/J mice were purchased from Jackson Laboratories (Bar Harbor, Me.) and all mice were used in accordance with a protocol approved by the animal care and use committee of Sirtris pharmaceuticals. Single cell suspensions were prepared from spleens and peripheral lymph nodes following red blood cell lysis (Sigma-Aldrich, USA). CD4^+ T cells were enriched by magnetic cell sorting using the mouse CD4^+ T cell isolation kit II (Miltenyi Biotec, Auburn, Calif.) in accordance with manufacturers instructions, and these cells were stimulated for 18-24 hours using plate-bound anti-CD3 (eBioscience) and anti-CD28 (BD Biosciences) antibodies as previously described (Sundrud, et al., Science (New York, N.Y.) 2009 324: 1334-1338). Activated T cells were then stained for cell surface receptors and subjected to mouse IL-17 capture assay for FACS sorting into CD62L^loCCR6^31 IL-17^−, CD62L^loCCR6^+IL-17^−, or CD62L^loCCR6^+IL-17^+ subsets (see below). Sorted mouse T cell populations were cultured in DMEM medium (Mediatech, Inc., USA) containing 10% FCS (Invitrogen). To expand sorted T cell populations, 10 U/mL recombinant human IL-2 (BD Biosciences) and mouse CD3/CD28 T cell expander beads (1:2 beads:cells ratio) (Invitrogen) were added and cells were cultured for 6 days prior to restimulation. […]

The next assay concerns CCR6^+IL-17^+ cells. Kind of assay: IL-17 expression in sorted CCR6+IL-17+ memory T cells cultured in IL-2 medium. The settings on record: IL-2-supplemented medium, 6 days, restimulation. The class given is cell-based, human. The method, then:
(§1) Peripheral Blood Mononuclear Cells (PBMCs) from healthy individuals (New York Blood Center, New York, N.Y.) were prepared using Ficoll-paque plus (GE Amersham, Uppsala, Sweden). Whole blood samples from rheumatoid arthritis patients were purchased from Bioreclamation (New York, N.Y.) and were processed similar to healthy donor blood. All healthy donor and patient samples were consented prior to purchase, were none-identifiable and approved by institutional human subjects board. CD4^+ T cells were isolated using Dynal CD4 Positive Isolation Kit (Invitrogen, Carlsbad, Calif.) directly from purified PBMCs and were >99% pure. CD4^+ T cells were sorted by FACS ARIA cell sorter (BD, San Jose, Calif.) into CD45RO^+ CD25^− memory T (TM) cells. TM cells were activated either by anti-CD3 and anti-CD28 (aCD3/aCD28) coated beads (1:4 beads:cells ratio) for 18-24 hours, or by Phorbol 12-myristate 13-acetate (PMA) and ionomycin for 4 hours and further FACS sorted based on CCR6 and IL-17 expression into CCR6^−IL-17^−, CCR6^+IL-17^+, or CCR6^+ IL-17^− subsets (as determined by secretion assay labeling, see below). Sorted cells (>99% pure) were cultured in serum-free Xvivo-15 medium (Lonza, Wakersville, Md.) at 37° C. and 5% CO2 for 6-7 days prior to restimulation with PMA and ionomycin (see below). […]

The subject of assay [2] is CCR6^+IL-17^+ and CCR6^+IL-17^− T cells. Kind of assay: Proliferation of CFSE/eFluor 670-labelled CCR6+IL-17+ and CCR6+IL-17- T cells in response to IL-2. The class given is cell-based, human. As to conditions: IL-2 stimulation, dye dilution day 2 and 4. The procedure:
as §1

The subject of assay [3] is CCR6^+IL-17^− TM cells from RA patients. In words: IL-17 induction in CCR6+IL-17- memory T cells from rheumatoid arthritis patients cultured with IL-2. Type of assay: cell-based, human. The settings on record: culture with IL-2, 7 days; not seen in CCR6- cells. The method, then: as §1

On to “IL-2: recombinant human IL-2 (BD Biosciences), γc-cytokine, used at 10 U/mL”, for which the “IL-17 production by mouse CCR6+ IL-17- memory T cells” value in assay [1] is listed as “capable of producing IL-17”. Further, in the assay on CCR6^+IL-17^+ cells, the “IL-17 expression in cells initially sorted as CCR6+IL-17+” value was “maintained high-level IL-17 expression”. Moreover, in assay [2], the “proliferation of CCR6+IL-17+ versus CCR6+IL-17- T cells” value is listed as “proliferate similarly”. Further, the “IL-17 expression in CCR6+ IL-17- memory T cells from RA patients” value in assay [3] was “upregulated IL-17”.
